Assay results published in the NIST ThermoML archive (doi:10.1016/j.jct.2016.03.011).
Numbers after ± are expanded uncertainties.

Columns and labels:
[1] = Crystal; DTA
[2] = Molar enthalpy of transition or fusion; details: Crystal; DSC

N=C(Nc1ccccc1)Nc1ccccc1 [1,3-diphenylguanidine]
Normal melting temperature [1]: 148.00 ± 1.1 °C | Molar enthalpy of transition or fusion [2]: 5.38 ± 0.222 kcal/mol
